Assay results: article PMC10583824, “The rational design of ARUK2007145, a dual inhibitor of the α and γ isoforms of the lipid kinase phosphatidylinositol 5-phosphate 4-kinase (PI5P4K)” (RSC Medicinal Chemistry, 2023)

Biological target: T1, PI5P4Kγ+ (Homo sapiens, UniProt Q8TBX8, D138G/D197E/E133P/E135D/E153T/E196G/G139A/N195G/S132L/S134N)
T1 sequence (Q8TBX8 with tags, fused parts or gaps INS131LPN/S132D/E133S/S134Q/E135A/G136R/D138G/G139A/E153T/N195G/E196G/D197E): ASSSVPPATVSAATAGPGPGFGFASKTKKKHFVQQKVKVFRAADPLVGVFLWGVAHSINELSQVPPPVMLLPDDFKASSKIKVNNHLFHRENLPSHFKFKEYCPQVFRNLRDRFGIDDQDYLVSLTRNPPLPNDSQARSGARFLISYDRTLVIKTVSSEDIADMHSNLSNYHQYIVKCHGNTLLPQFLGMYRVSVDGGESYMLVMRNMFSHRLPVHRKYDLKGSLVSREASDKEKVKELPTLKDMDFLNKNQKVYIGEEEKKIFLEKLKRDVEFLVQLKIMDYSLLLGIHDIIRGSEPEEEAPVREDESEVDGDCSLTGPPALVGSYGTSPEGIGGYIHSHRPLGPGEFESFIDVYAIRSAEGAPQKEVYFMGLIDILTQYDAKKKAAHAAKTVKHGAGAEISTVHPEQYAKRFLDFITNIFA
Test: biochemical
Details: PI5P4Kγ+ pIC50, ADP-Glo; footnote a: inconsistent replicates, value shown is upper limit

- IC50: > 50.1 µM
Compound: COc1ccc(Nc2ncnc3c2ccn3-c2ccc(C)c(C)c2)cc1Cl [Compound 3, reference compound]
